# Laboratory results published in PMC11241748, “DNA Repair Protein XRCC1 Stimulates Activity of DNA Polymerase λ under Conditions of Microphase Separation”.
# Biological target: Cy3-labeled XRCC1 (X-ray repair cross-complementing protein 1) (UniProt P18887)
# Experiment: FRET or BRET; Cy3-XRCC1 constant at 30 nM, titrated with 0-8000 nM Cy5-labelled polymerase; decrease of donor fluorescence (excitation 530 nm, emission 580 nm); 50 mM HEPES-NaOH pH 8.0, 100 mM NaCl, 2 mM DTT; 25 °C
substance,measurement,value
Cy5-labeled DNA polymerase β (from UniProt P06766 1-335) (enzyme; other documents disagree on this pair),Kd,0.029 µM
